Laboratory results taken from patent US20230270720A1, “MAVOGLURANT, A MGLUR5 ANTAGONIST, FOR USE IN THE TREATMENT IN THE REDUCTION OF OPIOID USE” (Novartis AG, priority 2020, published 2023).

Test system: Sprague-Dawley rats
Assay: Remifentanil intravenous self-administration model in Sprague-Dawley rats
Assay type: in vivo, rat

Compound: Cc1cccc(C#Cc2ccccc2)n1 [Compound (III), 2-Methyl-6-(phenylethynyl)-pyridine, reference compound]
- average number of remifentanil infusions (20 mg/kg p.o. 30 minutes before one remifentanil 3.2 μg/kg/infusion session): did not significantly affect

Compound: Buprenorphine hydrochloride
- average number of remifentanil infusions (0.4 mg/kg s.c. 30 minutes before session): markedly and significantly reduced
- rate of lever press (0.4 mg/kg s.c. 30 minutes before session, not reaching statistical significance (p>0.05)): 0.038±0.025 responses per second
